The test system of the data set is NIH3T3 fibroblast cell line. Conditions: 625 μg/ml.

Our source for the cytotoxicity values is patent US20260248920A1, “COMPOSITION FOR PREVENTING OR TREATING INFLAMMATORY DISEASES, CONTAINING POLY(ORGANOPHOSPHAZENE) POLYMER” (KOREA INSTITUTE OF SCIENCE AND TECHNOLOGY, priority 2022, published 2026).

Consider `Cc1ccc(-c2cc(C(F)(F)F)nn2-c2ccc(S(N)(=O)=O)cc2)cc1` [CXB, Celecoxib], for which the cytotoxicity entry is “high cytotoxicity”.
